Reference: US20240060126

T1: MspA-((Del-L74/G75/D118/L119)G1A/D56N/E59F/L88N/D90N/D91N/Q126R/D134R/E139K)8
T1 chain: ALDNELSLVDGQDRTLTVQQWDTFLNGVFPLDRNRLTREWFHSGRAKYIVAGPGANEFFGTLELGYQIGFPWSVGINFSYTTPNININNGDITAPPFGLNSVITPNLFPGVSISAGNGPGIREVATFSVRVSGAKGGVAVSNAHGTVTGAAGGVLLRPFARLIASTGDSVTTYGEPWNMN

T2: MspA-((Del-L74/G75/D118/L119)D56N/E59Y/L88N/D90N/D91N/Q126R/D134R/E139K)8
T2 chain: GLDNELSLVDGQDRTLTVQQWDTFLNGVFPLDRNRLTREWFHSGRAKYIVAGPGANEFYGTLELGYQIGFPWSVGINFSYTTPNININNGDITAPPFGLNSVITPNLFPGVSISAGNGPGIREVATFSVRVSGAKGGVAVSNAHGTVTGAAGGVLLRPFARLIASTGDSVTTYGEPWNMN

T3: MspA-((Del-L74/G75/D118/L119)D56N/E59R/L88N/D90N/D91N/Q126R/D134R/E139K)8
T3 chain: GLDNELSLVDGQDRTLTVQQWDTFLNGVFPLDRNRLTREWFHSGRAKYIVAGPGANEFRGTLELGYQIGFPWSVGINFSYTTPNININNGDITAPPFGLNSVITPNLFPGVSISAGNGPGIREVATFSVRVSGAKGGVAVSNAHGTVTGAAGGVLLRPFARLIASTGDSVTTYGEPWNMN

T4: MspA-((Del-L74/G75/D118/L119)D56F/E59R/L88N/D90N/D91N/Q126R/D134R/E139K)8
T4 chain: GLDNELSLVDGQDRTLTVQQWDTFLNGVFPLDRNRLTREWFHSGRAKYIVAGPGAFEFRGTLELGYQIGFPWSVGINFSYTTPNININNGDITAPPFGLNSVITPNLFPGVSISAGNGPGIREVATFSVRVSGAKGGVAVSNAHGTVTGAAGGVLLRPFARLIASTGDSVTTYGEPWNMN

T5: MspA-((Del-L74/G75/D118/L119)D56L/E59L/L88N/D90N/D91N/Q126R/D134R/E139K)8
T5 chain: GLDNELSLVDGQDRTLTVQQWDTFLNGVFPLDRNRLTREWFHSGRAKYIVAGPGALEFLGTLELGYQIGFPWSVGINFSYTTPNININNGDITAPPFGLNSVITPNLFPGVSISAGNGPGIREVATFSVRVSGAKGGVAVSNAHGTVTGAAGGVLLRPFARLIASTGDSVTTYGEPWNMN


Tests used:
[1] = molecular target: T1, MspA-(Del-L74/G75/D118/L119)G1A/D56N/E5 …
[2] = molecular target: T2, MspA-(Del-L74/G75/D118/L119)D56N/E59Y/L …
[3] = molecular target: T3, MspA-(Del-L74/G75/D118/L119)D56N/E59R/L …
[4] = molecular target: T4, MspA-(Del-L74/G75/D118/L119)D56F/E59R/L …
[5] = molecular target: T5, MspA-(Del-L74/G75/D118/L119)D56L/E59L/L …

| Protein | % bases missed in construct X [1] | % bases missed in construct X [2] | % bases missed in construct X [3] | % bases missed in construct X [4] | % bases missed in construct X [5] | slips forward per kilobase [1] |
| --- | --- | --- | --- | --- | --- | --- |
| T4 Dda-E94C/C109A/C136A/A360C (SEQ ID NO: 24 with mutations E94C/C109A/C136A/A360C) (protein) MTFDDLTEGQKNAFNIVMKAIKEKKHHVTINGPAGTGKTTLTKFIIEALISTGETGIILAAPTHAAKKILSKLSGKEASTIHSILKINPVTYECNVLFEQKEVPDLAKARVLICDEVSMYDRKLFKILLSTIPPWATIIGIGDNKQIRPVDPGENTAYISPFFTHKDFYQCELTEVKRSNAPIIDVATDVRNGKWIYDKVVDGHGVRGFTGDTALRDFMVNYFSIVKSLDDLFENRVMAFTNKSVDKLNSIIRKKIFETDKDFIVGEIIVMQEPLFKTYKIDGKPVSEIIFNNGQLVRIIEAEYTSTFVKARGVPGEYLIRHWDLTVETYGDDEYYREKIKIISSDEELYKFNLFLGKTCETYKNWNKGGKAPWSDFWDAKSQFSKVKALPASTFHKAQGMSVDRAFIYTPCIHYADVELAQQLLYVGVTRGRYDVFYV | less than 12% bases missed in construct X | less than 12% bases missed in construct X | less than 12% bases missed in construct X | less than 12% bases missed in construct X | less than 12% bases missed in construct X |  |
| T4 Dda-E94C/C109A/C136A/K199L/A360C (protein) MTFDDLTEGQKNAFNIVMKAIKEKKHHVTINGPAGTGKTTLTKFIIEALISTGETGIILAAPTHAAKKILSKLSGKEASTIHSILKINPVTYECNVLFEQKEVPDLAKARVLICDEVSMYDRKLFKILLSTIPPWATIIGIGDNKQIRPVDPGENTAYISPFFTHKDFYQCELTEVKRSNAPIIDVATDVRNGKWIYDLVVDGHGVRGFTGDTALRDFMVNYFSIVKSLDDLFENRVMAFTNKSVDKLNSIIRKKIFETDKDFIVGEIIVMQEPLFKTYKIDGKPVSEIIFNNGQLVRIIEAEYTSTFVKARGVPGEYLIRHWDLTVETYGDDEYYREKIKIISSDEELYKFNLFLGKTCETYKNWNKGGKAPWSDFWDAKSQFSKVKALPASTFHKAQGMSVDRAFIYTPCIHYADVELAQQLLYVGVTRGRYDVFYV | less than 12% bases missed in construct X |  |  | less than 12% bases missed in construct X |  | produced the lowest slips forward per kilobase |
